# Target: NK3 receptor (Cavia porcellus, UniProt P30098)
# Protein sequences, listed by entry. Tags and fused reporters are not part of them.
# UniProt P30098, whole entry: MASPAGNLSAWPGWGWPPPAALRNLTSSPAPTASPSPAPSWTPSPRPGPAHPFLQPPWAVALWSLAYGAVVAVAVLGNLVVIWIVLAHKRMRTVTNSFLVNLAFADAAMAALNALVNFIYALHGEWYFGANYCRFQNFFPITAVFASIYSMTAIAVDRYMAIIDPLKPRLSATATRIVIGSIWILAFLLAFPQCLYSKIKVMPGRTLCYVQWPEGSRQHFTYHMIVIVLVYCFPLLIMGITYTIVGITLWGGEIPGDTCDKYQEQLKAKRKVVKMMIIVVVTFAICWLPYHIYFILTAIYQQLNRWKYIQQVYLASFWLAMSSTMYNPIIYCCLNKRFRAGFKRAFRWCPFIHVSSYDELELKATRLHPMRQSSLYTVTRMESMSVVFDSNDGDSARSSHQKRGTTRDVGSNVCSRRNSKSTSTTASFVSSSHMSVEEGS
# Test: Binding: displacement of [3H]-Senktide / [125I]-[Me-Phe7]-NKB, guinea-pig cortex membranes
smiles,measurement,value
"CC[C@H](NC(=O)c1c(O)c(-c2ccccc2)nc2ccccc12)c1ccccc1 [Example 85, (S)-N-(α-ethylbenzyl)-3-hydroxy-2-phenylquinoline-4-carboxamide]",Ki,4.8 nM
